Earlier results, collected in PMC9772450, “Gel-forming antagonist provides a lasting effect on CGRP-induced vasodilation” (Frontiers in Pharmacology, 2022).

Settings: approved peptide therapeutics; cited from earlier work

For octreotide, the Volume of distribution is given as 18.1 to 30.4 L.
